Values of other authors, collected in patent US20250009659A1, “DEVELOPMENT OF A NEW FAMILY OF NANOCARRIERS DERIVED FROM NATURAL TETRAMERIC ACID LIPIDS” (UNIVERSITE DE RENNES, priority 2021, published 2025).

Details: insulin in animals; most promising nanocarrier studies [1]

For insulin, the oral bioavailability is given as 10 to 20%.
